In US11390661B2, “HCMV entry inhibitors” (priority 2016, dated 2022):

Tests used:
HCMV particles = assay: Binding of chimeric receptors (Fc-fusion proteins) to HCMV particles; set-up: species or system Human cytomegalovirus; conditions: particles pre-incubated with Fc-fusion protein, attached to cells on ice
Experimental: To assess the binding of Fc-Proteins to virus particles, HFFs were seeded at a density of 40,000 cells per well on IBIDI plates 1 day prior to infection. Virus preparations were pre-incubated with Fc-fusion proteins at a final concentration of 500 ng/ml for 2 h at 37° C. The virus/Fc-protein mixtures were incubated with the cells for 1.5 h on ice. Before fixation with 80% acetone, the cells were washed once with MEM. For staining of viral particles mouse hybridoma recognizing the abundant viral protein pp150 (generously provided by W. Britt, Sanchez 2000) used.
The inventors tested this by staining of adsorbed virus particles with the Fc-fusion proteins. […] Virus particles were stained for the capsid protein pp150 and bound Fc-fusion proteins.
The inventors analyzed the mode of inhibition by PDGFR-alpha-Fc. For this, the binding of different concentrations of the fusion protein was quantified by assessing the particle intensities after staining with anti-human antibody (FIG. 5). […] (FIGS. 4 and 5).

HCMV strain TB40/E = assay: Inhibition of infection of fibroblasts (HFFs), IE antigen immunofluorescence; type: cell-based, Human cytomegalovirus; conditions: increasing concentrations, pre-incubated 2 h
Experimental: For testing the inhibitory effect of antivirals or fusion proteins on HCMV, the respective inhibitors were diluted in MEM and mixed with infectious supernatants, the mixtures were incubated for 2 h at 37° C. before addition to the cells. For fibroblast infection the virus-inhibitor mixture was incubated on the cells for about 24 h. If endothelial cells were included in the experiment, all cells were supplied with their respective maintenance media after 2 h, and further incubated for 22 h.
Infection efficiencies were determined by immunofluorescence staining for viral proteins. For fixation and permeabilization the cells were incubated with 80% acetone for 5 min. For HCMV infected cells the immediate early proteins pUL122/123 were detected with a mouse monoclonal (clone E13, Argene) and visualized using a Cy3 conjugated goat anti-mouse secondary antibody (Jackson Immuno Research). HSV infected cultures were stained 6 h post infection for ICP0 using a mouse monoclonal (clone 11060, Santa Cruz) and goat anti-mouse AF488 (life technologies). DAPI was used to locate nuclei. Infection rates were determined by counting the number of cell nuclei positive for the respective viral protein, as well as the total number of nuclei per image. For each condition three images were evaluated. […]

EGFR-Fc: recombinant Fc-fusion protein obtained from R&D (344-ER-050), comparison chimera [reference compound]
binding of Fc-fusion protein to virus particles (anti-human antibody staining) (HCMV particles): visualized only those particles that were pre-treated with PDGFR-alpha-Fc | inhibitory potential of Fc chimeras on HCMV infection of HFFs (HCMV strain TB40/E): neither PDGFR-beta-Fc nor EGFR-Fc had an effect
